The record followed here is ChEMBL document CHEMBL1142025 (Bioorg Med Chem Lett, 2005).

pKi: −log10 of the molar value.

In the test the target is Human immunodeficiency virus type 1 protease (Human immunodeficiency virus 1, UniProt Q72874). In words: Binding affinity against human immunodeficiency virus (HIV) protease. Type of test: single protein, human immuno deficiency virus protease.

Compound `CC(C)(C)OC(=O)NCCCC[C@H](NC(=O)OCC1c2ccccc2-c2ccccc21)C(=O)O` gave a pKi of 4.55.

`Cc1ccc(S(=O)(=O)N(CC(C)C)[C@H](CCCCNC(=O)OCC2c3ccccc3-c3ccccc32)C(=O)O)cc1` showed a pKi of 6.48.

One may read the pKi as the negative decadic logarithm of the Ki, by convention in mol/L.
